Values of other authors, collected in patent US11185540B2, “Extended release compositions of opioid antagonists and phosphodiesterase 5 inhibitors” (Pardon My Scotch, LLC, priority 2017, dated 2021).

Chains of the proteins cited; added tags and fusions are not shown.
UniProt P35372, whole entry, species assumed: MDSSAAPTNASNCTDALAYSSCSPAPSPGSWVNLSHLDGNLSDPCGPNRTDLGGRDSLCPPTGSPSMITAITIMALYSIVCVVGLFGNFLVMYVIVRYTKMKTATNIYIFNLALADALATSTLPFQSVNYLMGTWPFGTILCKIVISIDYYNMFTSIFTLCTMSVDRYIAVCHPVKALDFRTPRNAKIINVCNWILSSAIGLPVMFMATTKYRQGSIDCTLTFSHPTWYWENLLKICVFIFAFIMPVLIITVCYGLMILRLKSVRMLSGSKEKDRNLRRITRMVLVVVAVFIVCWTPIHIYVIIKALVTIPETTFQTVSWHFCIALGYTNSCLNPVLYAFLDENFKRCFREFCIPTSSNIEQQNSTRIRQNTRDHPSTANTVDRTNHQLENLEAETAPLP

Biological target: μ-opioid receptor (Homo sapiens, UniProt P35372)
Details: reported

SMILES: Oc1ccc2c3c1O[C@H]1[C@H](O)CC[C@@]4(O)[C@@H](C2)N(CC2CC2)CC[C@]314 [Batch 6β-naltrexol, 6β-naltrexol]
- μ receptor affinity relative to naltrexone: half of that of naltrexone
